## Ab-95 light chain CDR variants: yeast mating affinities

Values reported by Engelhart et al. 2022, doi:10.1038/s41597-022-01779-4 (FLAb copy).

All variants were tested on one target, the spike HR2 peptide PDVDLGDISGINAS (SARS-CoV-2).

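The starting antibody came from a phage panning campaign against this peptide. Variants in AAYL52 differ from the parent at up to three CDR positions; double and triple changes were sampled at random. The assay is AlphaSeq: two haploid yeast populations carry antibody and antigen on their surface. Mating (16 h, 30 °C) was followed by selection of diploids and sequencing of their barcodes. A regression on co-assayed BCL2-family reference pairs converts the normalised counts of each replicate to an apparent Kd. Each pool was mated in three replicate cultures.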

Ab-95 is the parent antibody, in scFv form: VH, then the linker GGGGSGGGGSGGGGS, then VL. The heavy chain is unchanged in all variants.
VH: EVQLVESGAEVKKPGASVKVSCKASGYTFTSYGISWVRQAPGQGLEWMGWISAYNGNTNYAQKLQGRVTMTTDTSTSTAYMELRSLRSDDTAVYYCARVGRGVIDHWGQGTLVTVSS
VL: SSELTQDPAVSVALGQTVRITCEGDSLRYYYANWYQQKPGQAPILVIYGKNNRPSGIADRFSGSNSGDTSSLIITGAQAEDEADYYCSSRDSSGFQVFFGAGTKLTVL

Substitutions are numbered in sequence along the VL above, starting at 1 (not Kabat).
Values are log10 of the apparent Kd in nM; lower means stronger binding.
Where no diploid with the target was found in that replicate, the entry reads "nd": below detection, most likely a poor binder, though not proof of it.
Background: pairings of library AAYL52 with three empty control strains gave a value in 28% of cases (median 3.91, 5th percentile 2.90). Values in that range, when seen in few replicates, are hard to tell from nonspecific mating. Also given: how often the same scFv was detected with the empty control strains, with their mean in brackets.
Parent in this assay: reference entry 2.31, copy in this library 2.25.

changes | replicates, log10 nM | signal with controls
N33H+S89G+D91Q | 5.31 / nd / nd | 5 of 9 (3.90)
Y29A+G49E+F98M | 3.19 / nd / nd | 2 of 9 (3.60)
G24N+P54Q+S55V | 4.21 / 3.45 / 4.48 | 3 of 9 (3.80)
G24L+G49M+N52P | 3.94 / 3.94 / nd | 3 of 9 (4.20)
G24H+N52G+R90M | 4.85 / nd / nd | 3 of 9 (4.17)
D91T+G94P | nd / nd / nd | 0 of 9
K50R+D91I+F95V | 2.55 / 2.56 / 1.78 | 0 of 9
Y29E+P54T | 3.07 / 3.47 / 3.40 | 4 of 9 (3.62)
A32D+N33M+G94E | nd / 3.35 / nd | 0 of 9
R28A+S88V+F98G | 2.99 / 4.31 / 3.86 | 2 of 9 (3.34)
D25A+S89C+F95S | 2.61 / 2.54 / 1.84 | 1 of 9 (3.60)
L27W+R90S+Q96A | 3.21 / nd / nd | 2 of 9 (3.67)
D25T+K50M+S88F | 3.63 / 3.60 / 2.57 | 7 of 9 (4.38)
D25Q+Y29P+F98P | 4.89 / 3.87 / nd | 2 of 9 (3.96)
Y29M+F98R | nd / 2.82 / 3.51 | 1 of 9 (4.51)
S89D+R90Q+V97S | 5.14 / nd / 4.56 | 5 of 9 (3.53)
Y29C+G49C+R90V | nd / nd / nd | 1 of 9 (4.34)
S26D+R53I+S55P | 3.78 / nd / 3.50 | 4 of 9 (4.53)
G24Y+N33S+P54I | nd / 4.68 / nd | 2 of 9 (4.37)
D25N+L27W+A32P | 3.02 / 3.06 / 2.97 | 3 of 9 (4.05)
E23S+R53I+F98I | nd / nd / nd | 0 of 9
K50V+G94M+Q96K | 4.29 / 4.81 / nd | 2 of 9 (4.33)
S55G+S89H+S92F | nd / nd / 4.54 | 2 of 9 (4.63)
A32S+N33Y+G94F | nd / 3.20 / nd | 3 of 9 (3.23)
R28T+S89R | nd / nd / nd | 0 of 9
N33L+V97W+F98C | nd / 4.86 / nd | 2 of 9 (5.02)
G24S+R53C+F98I | nd / nd / 3.62 | 2 of 9 (3.93)
N52I+R53Q | 3.12 / 3.02 / 2.74 | 4 of 9 (4.19)
E23D+D25Y+L27P | 3.75 / nd / 4.30 | 5 of 9 (4.16)
D25L+S26R | nd / 3.35 / 3.38 | 1 of 9 (3.61)
D25G+S89N+Q96S | 2.75 / nd / nd | 0 of 9
S26V+G49I+P54T | 4.77 / nd / nd | 2 of 9 (4.30)
Y29H+S55V+S92N | 1.71 / 2.60 / 1.67 | 3 of 9 (3.67)
G24C+N52E+S89N | 2.71 / 2.62 / 2.65 | 1 of 9 (2.91)
S26Y+S88I+F98N | 5.13 / nd / nd | 1 of 9 (3.78)
Y31D+K50F+Q96D | 2.36 / 2.25 / 1.77 | 4 of 9 (3.78)

The 3 strongest on average among those seen in every replicate, once more:

changes | replicates, log10 nM | signal with controls
Y29H+S55V+S92N | 1.71 / 2.60 / 1.67 | 3 of 9 (3.67)
Y31D+K50F+Q96D | 2.36 / 2.25 / 1.77 | 4 of 9 (3.78)
K50R+D91I+F95V | 2.55 / 2.56 / 1.78 | 0 of 9